This passage reports Kd results from paper PMC4860709.

The chains behind the UniProt entries cited, without tags or fusion partners. Residues count along the entry.
UniProt P19438, 30-211: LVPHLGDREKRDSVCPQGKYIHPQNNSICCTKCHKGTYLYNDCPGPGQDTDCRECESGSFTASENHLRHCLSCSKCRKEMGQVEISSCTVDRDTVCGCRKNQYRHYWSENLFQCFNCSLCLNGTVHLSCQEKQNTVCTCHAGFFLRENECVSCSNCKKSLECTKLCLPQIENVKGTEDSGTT

This assay concerns the target tumor necrosis factor receptor 1 (UniProt P19438). The assay can be described thus: SPR. (In general: SPR reads the build-up and loss of mass on a sensor chip optically.)

Regarding Hydrostatin-SN1 (peptide), the Kd (as a rule, the constant that tells how readily two partners part at equilibrium) was found to be 32 µM.
